The source of these data is patent US20240002326A1, “COMPOUNDS AND USE THEREOF IN METHODS OF TREATMENT” (The University of Queensland, priority 2016, published 2024).

The chains behind the UniProt entries cited, without tags or fusion partners.
UniProt P48436, whole entry: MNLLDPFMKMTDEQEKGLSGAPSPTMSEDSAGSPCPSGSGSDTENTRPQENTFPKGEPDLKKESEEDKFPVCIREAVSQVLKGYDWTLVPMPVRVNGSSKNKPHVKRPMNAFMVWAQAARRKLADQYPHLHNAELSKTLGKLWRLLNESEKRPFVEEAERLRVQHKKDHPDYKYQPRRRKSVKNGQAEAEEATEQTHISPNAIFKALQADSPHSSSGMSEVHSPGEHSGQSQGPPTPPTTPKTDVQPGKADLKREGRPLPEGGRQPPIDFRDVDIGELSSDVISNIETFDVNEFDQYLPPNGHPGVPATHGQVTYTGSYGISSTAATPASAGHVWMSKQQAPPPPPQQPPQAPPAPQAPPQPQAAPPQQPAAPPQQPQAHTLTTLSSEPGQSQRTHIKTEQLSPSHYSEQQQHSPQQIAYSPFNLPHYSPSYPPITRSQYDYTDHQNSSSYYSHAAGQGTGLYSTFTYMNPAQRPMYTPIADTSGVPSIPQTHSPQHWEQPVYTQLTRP
UniProt Q7M6Y2, whole entry: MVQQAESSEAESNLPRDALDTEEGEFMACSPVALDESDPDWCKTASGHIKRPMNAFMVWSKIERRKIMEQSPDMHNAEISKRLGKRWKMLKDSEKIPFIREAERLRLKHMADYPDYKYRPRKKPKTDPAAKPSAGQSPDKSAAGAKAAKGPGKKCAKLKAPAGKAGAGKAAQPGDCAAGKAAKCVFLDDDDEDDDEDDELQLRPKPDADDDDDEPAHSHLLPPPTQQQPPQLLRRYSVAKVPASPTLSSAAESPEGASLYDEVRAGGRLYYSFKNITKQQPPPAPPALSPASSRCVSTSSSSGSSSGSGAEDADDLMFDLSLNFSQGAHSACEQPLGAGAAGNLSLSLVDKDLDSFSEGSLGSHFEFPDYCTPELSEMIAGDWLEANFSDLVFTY

For one series, the target named is SOX9-SOX9 (Homo sapiens (Human), UniProt P48436). The experiment in a line: ALPHA-Screen SOX9 homodimerization. Conditions: up to 200 μM. (Alpha assays give light when donor and acceptor beads are brought close together.)
Another series relates to Calcium Channel L-Type. Put plainly: Off-target radioligand binding, Calcium Channel L-Type. Conditions: Rat.
A further series relates to Nicotinic Acetylcholine. The experiment in a line: Off-target radioligand binding, Nicotinic Acetylcholine. The settings on record: Human.
Series [1] can be described thus: Critical micelle concentration (CMC) assay. Conditions: threshold concentration of micelle formation in 200 mM NaCl or FP buffer.
The target of the next series is SOX11 HMG fragment (Mus musculus, UniProt Q7M6Y2). Put plainly: FP DNA-binding competition assay, SOX11 HMG fragment. Conditions: read-out: DNA-binding inhibition IC50, SOX11 HMG; HMG only fragment. As to the method:
Mouse SOX HMG fragments. The HMG domains of mouse SOX2 (Group B), SOX11 (Group C), SOX6 (Group D), SOX9 (Group E), SOX18 (Group F) and SOX15 (Group G) were BP cloned from cDNA templates (IMAGE cDNA clone IDs: Sox18: 3967084; Sox9: 5354229; Sox4: 6822618) into a pDONRTM221 pENTRY vector, sequenced and recombined into a pETG20A or a pHisMBP expression plasmid using Gateway®LR Technology (Ng et al., 2012). Constructs were transformed into Escherichia coli BL21(DE3) cells (Luria-Bertani, 100 μg/ml Ampicillin).
The DNA-binding competition assay was performed in black 384-well plates, with mouse full length SOX18, or SOX-HMG fragments. All experiments were performed using a fluorescently-labelled Prox1-DNA element. […]
The DNA-binding competition assay was performed in 25 uL, in black 384-well plates, using either 30 mM HEPES (N-2-Hydroxyethylpiperazine-N′-2-Ethanesulfonic Acid) (pH 7.5, with 100 mM KCl, 40 mM NaCl, 10 mM NH4OAc, […], 2 mM MgCl2, 0.5 mM EDTA, 0.01% NP-40) for mouse full length SOX18, or Tris-NaCl (10 mM Tris pH 8.0 and 100 mM NaCl) for SOX-HMG fragments. […] After mixing protein, DNA probe and compound, plates were sealed and briskly agitated in the dark for 5 minutes at room temperature, 10 minutes at 37° C., and 30 minutes at room temperature, before reading fluorescence polarization on a Tecan M1000Pro (λexc=485 nm, λem=525 nm). […]

The subject of a further series is scrambled DNA. Put plainly: Direct DNA-binding assay (SPR), scrambled DNA. Conditions: biotinylated double-strand DNA on streptavidin chip. As to the method: Compounds were tested at a 1% v/v DMSO in HBS-EP buffer (10 mM HEPES, 150 mM NaCl, 3 mM EDTA, 0.005% v/v polysorbate 20, pH 7.4). The same buffer supplemented with 1% v/v DMSO was used as a mobile phase. DNA minor groove binder DAPI (4′,6-diamidino-2-phenylindole), DNA intercalator and minor groove binder actinomycin D, and DNA intercalator ethidium bromide were used as positive controls. Biotinylated (one tag per probe) double strand DNA probes were prepared using a standard annealing routine (5 min at 100° C., room temperature overnight and stored at −20° C.) of single strand anti-parallel DNA Probes purchased from Geneworks and were immobilized on CM5-SA streptavidin chips as per manufacturer's recommendations. […] All sample and control cycles were performed in triplicate. DMSO calibration was performed as per manufacturer's recommendations. After each injection, an extra flow system wash was performed with 50% v/v DMSO to avoid carryover. Experiments were run on a Biacore T200 (GE Healthcare, USA), with one flow cell kept as a reference.
From a molecular viewpoint, an inhibitor of SOX18-DNA binding could act either by interacting directly with the DNA, or the protein, or at the interface between protein and DNA. […]

Some results are limits rather than exact numbers.

On to `O=C(O)c1c(O)cccc1CCc1ccc2ccccc2c1`, for which the SOX9 homodimerization result on SOX9-SOX9 is recorded as “unperturbed”. The Inhibition (as a rule, the relative decrease from the control value, in per cent) at 10 μM (%) is −8% with Calcium Channel L-Type and 3% with Nicotinic Acetylcholine. Further, in series [1], the CMC was >1000 µM. Besides, at SOX11 HMG fragment, the IC50 – broadly, the concentration needed to halve the response being measured – was 270 to 310 µM. For the same compound, the “binding to scrambled DNA (SPR)” value in the series on scrambled DNA is “do not bind”.
